Consider one molecule from patent publication US20210206850A1 (ACCURUS BIOSCIENCES, published 2021).

The test concerns the target T1, human SIRPα huFc protein (human, UniProt P78324, in part, FITC label in Examples 4 and 9 (FACS); unlabeled in Example 3).
T1 construct: extracellular domain; also called SIRPa huFc; human SIRPaECD huFc; not shown: human Fc
Kind of test: FACS on CD47-CHO cells, human SIRPa huFc at 0.2 ug/ml, PE anti-human Fc gamma.

B1: human CD47 (full length) expressed on cells (receptor)
chain: not shown
notes: whole, on cells; also called human CD47/CHO cells; CHO/CD47 cells
For the molecule B1, the binding result was “binds”.
